Measured values reported in patent US20160106107A1, “Compositions and Methods for Treating Microorganism” (priority 2006, published 2016).

Tested on: healthy dry bean seed
Assay: Germination of healthy dry bean seed
Assay type: in vivo
Details: 0.25%

With oxysilver nitrate [High valency silver] as the substance, how does the “Day to 50% germination” value read?
The value was 5.0 days.
